From patent US12624038B2, “Molecules and methods related to treatment of uncontrolled cellular proliferation” (ST. JUDE CHILDREN'S RESEARCH HOSPITAL, priority 2019, dated 2026)
pKd: −log10 of the molar value.

Sequences of proteins named here, by UniProt entry; tags and fusion partners are left off. A change or cut given only in a name is not applied to a line headed by its entry.
UniProt O60674: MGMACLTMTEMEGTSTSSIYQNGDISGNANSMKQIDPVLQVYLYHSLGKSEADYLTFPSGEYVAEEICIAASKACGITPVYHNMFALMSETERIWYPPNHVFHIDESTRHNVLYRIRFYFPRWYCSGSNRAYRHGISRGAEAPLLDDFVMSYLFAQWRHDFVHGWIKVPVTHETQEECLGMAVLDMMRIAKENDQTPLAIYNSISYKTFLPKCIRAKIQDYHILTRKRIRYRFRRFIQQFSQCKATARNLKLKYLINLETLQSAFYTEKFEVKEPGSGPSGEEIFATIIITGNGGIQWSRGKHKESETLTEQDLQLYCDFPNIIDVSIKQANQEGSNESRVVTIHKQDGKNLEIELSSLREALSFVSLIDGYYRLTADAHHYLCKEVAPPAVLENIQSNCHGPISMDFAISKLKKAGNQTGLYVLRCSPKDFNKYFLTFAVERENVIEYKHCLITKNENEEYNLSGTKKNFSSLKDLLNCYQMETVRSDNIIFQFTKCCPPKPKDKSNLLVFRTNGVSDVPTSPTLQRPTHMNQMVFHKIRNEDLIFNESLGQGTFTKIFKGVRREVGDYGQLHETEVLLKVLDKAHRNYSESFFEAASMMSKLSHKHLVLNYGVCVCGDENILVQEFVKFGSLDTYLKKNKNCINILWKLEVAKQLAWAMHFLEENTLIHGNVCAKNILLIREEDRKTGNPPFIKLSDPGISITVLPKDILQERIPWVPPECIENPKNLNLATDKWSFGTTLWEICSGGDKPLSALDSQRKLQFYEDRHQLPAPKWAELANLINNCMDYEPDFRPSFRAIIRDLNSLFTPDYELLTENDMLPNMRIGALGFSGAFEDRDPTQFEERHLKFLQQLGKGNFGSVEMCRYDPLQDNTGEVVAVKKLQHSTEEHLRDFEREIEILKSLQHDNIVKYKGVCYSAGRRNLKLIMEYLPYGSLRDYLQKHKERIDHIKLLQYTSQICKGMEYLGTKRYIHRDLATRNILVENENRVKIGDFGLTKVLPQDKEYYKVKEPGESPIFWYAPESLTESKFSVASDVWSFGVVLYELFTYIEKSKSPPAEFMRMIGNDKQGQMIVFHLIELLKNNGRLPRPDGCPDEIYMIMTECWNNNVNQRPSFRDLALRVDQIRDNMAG

Biological target: T1, JAK2 (Homo sapiens, UniProt O60674)
T1 construct: purchased Eurofins DiscoveRx
Test: KdELECT Kd measurement (KINOMEscan platform), JAK2
Format: binding
Conditions: Kd to JAK family kinases

For `CCS(=O)(=O)N1CC(CC#N)(n2cc(-c3nc(Nc4ccc(C(=O)NCCCCNc5cccc6c5C(=O)N(C5CCC(=O)NC5=O)C6=O)cc4)nc4[nH]ccc34)cn2)C1` (stereo not shown) [Compound 6], the pKd was 9.96.
